Measured values as given in EP0359745B1, “GROWTH FACTOR RECEPTOR” (IMPERIAL CANCER RESEARCH TECHNOLOGY LIMITED, priority 1987, dated 1988).

The chains behind the UniProt entries cited, without tags or fusion partners. Where a name states a change or a piece, a line headed by the entry shows the natural chain unless it says otherwise.
UniProt P21729: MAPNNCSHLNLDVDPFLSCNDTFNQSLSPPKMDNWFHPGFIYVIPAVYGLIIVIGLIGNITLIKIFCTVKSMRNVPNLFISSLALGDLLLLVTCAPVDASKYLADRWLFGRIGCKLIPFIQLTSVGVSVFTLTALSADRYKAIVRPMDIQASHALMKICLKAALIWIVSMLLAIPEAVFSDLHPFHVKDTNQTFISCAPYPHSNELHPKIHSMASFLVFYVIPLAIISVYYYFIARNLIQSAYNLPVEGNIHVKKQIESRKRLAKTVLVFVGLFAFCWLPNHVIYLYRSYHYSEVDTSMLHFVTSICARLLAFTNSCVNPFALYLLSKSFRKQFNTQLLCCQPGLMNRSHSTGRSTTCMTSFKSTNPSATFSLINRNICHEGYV

Biological target: Mr 75000-85000 protein (Mus musculus, UniProt P21729)
Assay: ¹²⁵I-GRP affinity labelling (EGS cross-linking) of the Mr 75000-85000 protein in Swiss 3T3 cells, SDS-PAGE and scanning densitometry
Type: binding
Design: endogenous in cells; host or cells: Swiss 3T3 cells (mouse fibroblasts)
Procedure: After 2.5 h the cells were washed three times at 15°C with phosphate buffered saline (PBS) ad then incubated for 15 min at 15°C In 1 ml of binding medium, pH 7.4 In the presence of the appropriate cross-linking agent at the concentration indicated. The cross-linking agents (EGS, DSS, DSP and BSCOES) were dissolved in dimethyl sulphoxide immediately prior to use and were added to medium to give a final concentration of dimethylsulphoxide of 1-2%. The cultures were rapidly rinsed twice with PBS at 4°C and solubilized in 0.1ml of 2 x sample buffer 0.2 M Tris-HCl, pH 6.8, 10% (w/v) glycerol, 6% sodium dodecyl sulphate (SDS) (w/v) 4% β-mercaptoethanol (v/v) and 2 mM ethylenediaminetetraacetic acid. Samples were immediately heated at 100°C for 3-5 min and analysed by either one or two-dimensional gel electrophoresis.
Slab gel electrophoresis was performed using 7.5% acrylamide in the separating gel ad 5% in the stacking gel, ad 0.1% SDS (31). […] The Mr 75000-85000 band from autoradiograms was scanned using a Joyce-Loebl double beam densitometer and the areas under specific peaks were measured with a Hewlett-Packard digitizer.
After this time some cells were washed four times with cold (4°C) PBS supplemented with 1 mg/ml BSA, solubilized and total cell associated radioactivity was then determined in a gamma counter. […] The cells were then solubilized and samples were analyzed by SDS-PAGE. […]

- cross-linking of ¹²⁵I-GRP / level of the Mr 75000-85000 protein (in words) (summary of Table 1, saturating concentrations of the other mitogens): markedly inhibited
- Mr 75000-85000 protein % of control (¹²⁵I-GRP (0.5 nM), 15°C, 2.5 h, 6 mM EGS, additions: GRP 360 nM, GRP (14-27) 30 nM, bombesin 30 nM, litorin 92 nM, neuromedin B 220 nM, [D-Arg¹,D-Pro²,D-Trp^7,9,Leu¹¹] substance P 100 »M, GRP (1-16) 3230 nM, PDGF 5 nM, EGF 83 nM, vasopressin 1000 nM, insulin 1 »g/ml, phorbol 12,13 dibutyrate 2000 nM, substance P 740 nM, substance K 880 nM, somatostatin 610 nM, neurotensin 600 nM): 0.5 % of control
Substance: Bombesin
